{"sequences": {"note": "Sequences of proteins named here, by UniProt entry; tags and fusion partners are left off. A change or cut given only in a name is not applied to a line headed by its entry.", "UniProt P11308": "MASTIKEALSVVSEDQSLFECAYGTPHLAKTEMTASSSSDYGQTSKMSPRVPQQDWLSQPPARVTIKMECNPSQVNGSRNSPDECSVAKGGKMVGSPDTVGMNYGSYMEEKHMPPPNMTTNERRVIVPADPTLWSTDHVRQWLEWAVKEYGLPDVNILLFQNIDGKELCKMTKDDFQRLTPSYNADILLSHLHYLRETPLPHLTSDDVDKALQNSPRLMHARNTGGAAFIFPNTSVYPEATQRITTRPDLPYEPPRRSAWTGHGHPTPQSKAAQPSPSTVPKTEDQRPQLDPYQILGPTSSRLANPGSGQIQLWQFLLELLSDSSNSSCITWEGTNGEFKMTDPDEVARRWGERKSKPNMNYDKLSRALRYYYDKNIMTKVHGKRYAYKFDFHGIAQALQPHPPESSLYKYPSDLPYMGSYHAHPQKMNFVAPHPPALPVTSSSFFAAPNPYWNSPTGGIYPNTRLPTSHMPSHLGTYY"}, "source": "PubChem BioAssay AID624246", "about": "(National Center for Advancing Translational Sciences (NCATS), 2012)", "note": "This is a selection; strong and weak results do not stand in their true shares. Active and inactive are the calls of the source. Calls follow the shape of the dose curve; as a rule, active = well fitted inhibition curve with a large enough effect in the polarisation, with a control signal flat; inconclusive = small, poorly fitted or top-dose-only effect, or effect the other way, or a change in a side signal; inactive = no such curve, though single readings can be large or run the other way; the % refers to the polarisation."}
{"target": "Transcriptional regulator ERG (Homo sapiens) (UniProt P11308)", "assay": "qHTS for Small Molecule Inhibitors of the ERG Ets/DNA interaction; also: % of control where 0% means no effect", "details": "fluorescence polarization, His-ERG Ets domain / labelled DNA; at 76.9 µM (top of the series)", "excerpt": "The Ets family of proteins is a family of ~30 conserved transcription factors defined by the presence of an ~85 amino acid domain referred to as the Ets domain, which mediates sequence-specific DNA binding to a core DNA element GGAA/T.The Ets family member ERG has been linked to several neoplasms. […] More extensive studies of the effects of over-expression of ERG in prostate cells have recently been carried out and have shown that over-expression of ERG results in increased invasion. […] We will carry out a high throughout screen to identify inhibitors of the interaction between ERG and DNA using a fluorescence polarization (FP) assay with a His-tagged ERG Ets domain and fluorescently-labeled DNA probes to develop small molecule inhibitors of this interaction as probes to test this hypothesis and lay the groundwork for the development of targeted therapies against ERG. NIH Molecular Libraries Probe Production Network [MLPCN] NIH Chemical Genomics Center [NCGC] Grant: NS066464 PI Name: John Bushweller, University of Virgina\n1.5 ul of protein solution (1 uM ERG domain in 300mM KCl, 50mM Tris-HCl, 1mM EDTA, 1mM DTT, pH 7.5); 20 nl Control plate and compound library plate; 1.5 ul mixture of 5 nM Fluorescein-DNA and 100nM Texas-615-DNA solution in same buffer as above solution; measure fluorescence polarization sequentially for fluorescein (Excitation = 480 nm, Emission = 535s, 535p nm) and Texas red (Excitation = 555 nm, Emission = 632s, 632p nm)."}
{"smiles": "O=P1(N(CCCl)CCCl)OCCC2CCCCN21", "note": "(centres undefined)", "FP activity, negative = inhibition": "inactive: 3.71%"}
{"smiles": "CCNC(=S)/N=C(\\N)N[N+](=O)[O-]", "FP activity, negative = inhibition": "inactive: 12.5%"}
{"smiles": "O=C(NC1CCS(=O)(=O)C1)NP(=S)(Oc1ccccc1)Oc1ccccc1", "note": "(centres undefined)", "FP activity, negative = inhibition": "inactive: -15.9%"}
{"smiles": "c1ccc(-c2nn[nH]n2)c(-c2nn[nH]n2)c1", "FP activity, negative = inhibition": "inactive: -5.43%"}
{"smiles": "Cc1ccc(NP(=O)(Oc2cccc(C)c2)Oc2cccc(C)c2)nc1", "FP activity, negative = inhibition": "inactive: 0.92%"}
{"smiles": "Cc1ccccc1OP(=O)(Nc1ccccn1)Oc1ccccc1C", "FP activity, negative = inhibition": "inactive: -18.3%"}
{"smiles": "CC(NC(=O)COC(=O)C(O)(c1ccccc1)c1ccccc1)c1ccccc1", "note": "(centres undefined)", "FP activity, negative = inhibition": "inactive: 4.79%"}
{"smiles": "CN(C)C(=O)Oc1noc2ccccc12", "FP activity, negative = inhibition": "inactive: -3.43%"}
{"smiles": "O=c1c2cc([N+](=O)[O-])ccc2[nH]c2c([N+](=O)[O-])cc([N+](=O)[O-])cc12", "FP activity, negative = inhibition": "inactive: 4.32%"}
{"smiles": "COC(=O)c1cc2c(s1)N=C(c1ccccc1)N(C)P2(=O)N1CCOCC1", "note": "(centres undefined)", "FP activity, negative = inhibition": "inactive: -5.3%"}
{"smiles": "Cc1ccc(OP(=O)(Nc2ccccn2)Oc2ccc(C)cc2)cc1", "FP activity, negative = inhibition": "inactive: -2.19%"}
{"smiles": "CC(=O)NC(SC(=S)N(CC(C)C)CC(C)C)C(Cl)(Cl)Cl", "note": "(centres undefined)", "FP activity, negative = inhibition": "inactive: -6.08%"}
{"smiles": "O=C(OC1CN2CCC1CC2)c1ccccc1", "note": "(centres undefined)", "FP activity, negative = inhibition": "inactive: 12.2%"}
{"smiles": "CCC(=O)N1C2C3N(C(=O)CC)C1C1N(C(=O)CC)C(C(N1C(=O)CC)N3C(=O)CC)N2C(=O)CC", "FP activity, negative = inhibition": "inactive: -0.235%"}
{"smiles": "CCc1cc(O)c([N+](=O)[O-])c(C)c1[N+](=O)[O-]", "FP activity, negative = inhibition": "inactive: 26.3%"}
{"smiles": "CC(C)(C)C(=O)NC(Sc1ccccc1)C(Cl)(Cl)Cl", "note": "(centres undefined)", "FP activity, negative = inhibition": "inactive: -9.55%"}
{"smiles": "O=P1(Nc2nc3ccc(Cl)cc3s2)COc2ccccc2O1", "note": "(centres undefined)", "FP activity, negative = inhibition": "inactive: 6.53%"}
{"smiles": "CCOc1ccc(C2=NCC(CBr)S2)cc1", "note": "(centres undefined)", "FP activity, negative = inhibition": "inactive: -2.46%"}
{"smiles": "CC(=O)Nc1ccc([As](=O)(O)O)c(O)c1", "FP activity, negative = inhibition": "inactive: -3.52%"}
{"smiles": "CC(=O)Nc1ccc(Oc2c([N+](=O)[O-])cc([N+](=O)[O-])cc2[N+](=O)[O-])cc1", "FP activity, negative = inhibition": "inactive: -4.77%"}
{"smiles": "N#C/C(=C\\c1ccc(N(CCBr)CCBr)cc1)C(N)=O", "FP activity, negative = inhibition": "inactive: 3.39%"}
{"smiles": "CC(=O)c1ccc(N2CC2c2ccncc2)cc1", "note": "(centres undefined)", "FP activity, negative = inhibition": "inactive: -11.7%"}
{"smiles": "COC(=O)C1(C)COP(=O)(NCc2ccccc2)OC1", "note": "(centres undefined)", "FP activity, negative = inhibition": "inactive: 7.11%"}
{"smiles": "C[C@@H]1C=CCP(=O)(Oc2ccccc2)O1", "note": "(some centres undefined)", "FP activity, negative = inhibition": "inactive: -0.95%"}
{"smiles": "C[C@H]1OP(=O)(Oc2ccccc2)C[C@@H]2O[C@@H]21", "note": "(some centres undefined)", "FP activity, negative = inhibition": "inactive: -5.42%"}
{"smiles": "c1nnnn1CCn1cnnn1", "FP activity, negative = inhibition": "inactive: 2.77%"}
{"smiles": "CC(C)C(=O)NC(Sc1ccccc1)C(Cl)(Cl)Cl", "note": "(centres undefined)", "FP activity, negative = inhibition": "inactive: 0.0519%"}
{"smiles": "O=P(Nc1nccs1)(c1ccccc1)c1ccccc1", "FP activity, negative = inhibition": "inactive: -5.09%"}
{"smiles": "O=P(Nc1nc2ccccc2s1)(c1ccccc1)c1ccccc1", "FP activity, negative = inhibition": "inactive: -4.18%"}
{"smiles": "C[C@H]1OP(=O)(Oc2ccccc2)[C@H](O)[C@H](O)[C@H]1N=[N+]=[N-]", "note": "(some centres undefined)", "FP activity, negative = inhibition": "inactive: 8.57%"}
{"smiles": "COc1ccc(N)c([N+](=O)[O-])c1[N+](=O)[O-]", "FP activity, negative = inhibition": "inactive: 13.6%"}
{"smiles": "O=P(Nc1ccccn1)(c1ccc(Br)cc1)c1ccc(Br)cc1", "FP activity, negative = inhibition": "inactive: 6.86%"}
{"smiles": "CN(C)C1(CNC(=O)c2ccc(Cl)c(S(N)(=O)=O)c2)CCCCC1", "FP activity, negative = inhibition": "inactive: -13.9%"}
{"smiles": "Nc1ccc([As](=O)(O)c2ccc([N+](=O)[O-])cc2)cc1", "FP activity, negative = inhibition": "inactive: -6.64%"}
{"smiles": "C(Cc1nn[nH]n1)Cc1nn[nH]n1", "FP activity, negative = inhibition": "inactive: -2.18%"}
{"smiles": "O=C(OC1CN2CCC1CC2)c1cccc(Cl)c1", "note": "(centres undefined)", "FP activity, negative = inhibition": "inactive: -8.13%"}
{"smiles": "O=[N+]([O-])c1ccc(O)c(/C=N/Nc2ccc([N+](=O)[O-])cc2[N+](=O)[O-])c1", "FP activity, negative = inhibition": "inactive: -7.47%"}
{"smiles": "O=[N+]([O-])c1ncn(CCn2cnc([N+](=O)[O-])n2)n1", "FP activity, negative = inhibition": "inactive: -16.1%"}
{"smiles": "CC(=O)NC(SC(=S)N(C)C)C(Cl)(Cl)Cl", "note": "(centres undefined)", "FP activity, negative = inhibition": "inactive: -3.54%"}
{"smiles": "O=[As](O)(c1ccccc1)c1ccc(O)cc1", "FP activity, negative = inhibition": "inactive: 13.8%"}
{"smiles": "O=C(Nc1cc([As](=O)(O)O)ccc1O)c1ccccc1", "FP activity, negative = inhibition": "inactive: 15.2%"}
{"smiles": "O=P1(N(CCCl)CCCl)OCCCS1", "note": "(centres undefined)", "FP activity, negative = inhibition": "inactive: -1.13%"}
{"smiles": "O=[N+]([O-])c1cccc(NC2=NCC(CBr)S2)c1", "note": "(centres undefined)", "FP activity, negative = inhibition": "inactive: 1.73%"}
{"smiles": "COC(=O)C1(C)COP(=O)(Nc2ccccc2)OC1", "note": "(centres undefined)", "FP activity, negative = inhibition": "inactive: 4.73%"}
{"smiles": "O=C(O)CNc1ccc([As](=O)(O)O)cc1", "FP activity, negative = inhibition": "inactive: 16.8%"}
{"smiles": "CC(C)(C)C(=O)NC(Sc1ccncn1)C(Cl)(Cl)Cl", "note": "(centres undefined)", "FP activity, negative = inhibition": "inactive: 8.27%"}
{"smiles": "O=[N+]([O-])c1ncn(CCn2ncnc2[N+](=O)[O-])n1", "FP activity, negative = inhibition": "inactive: -7.18%"}
{"smiles": "O=[N+]([O-])c1cccc2n[nH]nc12", "FP activity, negative = inhibition": "inactive: 2.63%"}
{"smiles": "CC(=O)N1C2C3N(C(C)=O)C1C1N(C(C)=O)C(C(N1C(C)=O)N3C(C)=O)N2C(C)=O", "FP activity, negative = inhibition": "inactive: 3.85%"}
{"smiles": "Cc1ccc(NP(=O)(Oc2ccccc2)Oc2ccccc2)nc1", "FP activity, negative = inhibition": "inactive: 18.1%"}
{"smiles": "CCc1nc2c(n1)c1c(non1O)c1c2no[n+]1[O-]", "FP activity, negative = inhibition": "inactive: -2.06%"}
{"smiles": "O=[N+]([O-])c1cc([N+](=O)[O-])c(CCNc2ccccc2)c([N+](=O)[O-])c1", "FP activity, negative = inhibition": "inactive: 0.983%"}
{"smiles": "COc1ccc(C2=NCC(CBr)S2)cc1", "note": "(centres undefined)", "FP activity, negative = inhibition": "inactive: 4.21%"}
{"smiles": "CC(C)=N/N=C(\\N)N[N+](=O)[O-]", "FP activity, negative = inhibition": "inactive: 7.99%"}
{"smiles": "CN(C)C(=O)OCCc1n(C)cc[n+]1C", "FP activity, negative = inhibition": "inactive: -2.79%"}
{"smiles": "CC1CCN(C(=O)Oc2c(Cl)cc(Cl)c3cccnc23)CC1", "FP activity, negative = inhibition": "inactive: 0.845%"}
{"smiles": "Nc1ccc([As](=O)(O)c2ccc(N)cc2)cc1", "FP activity, negative = inhibition": "inactive: -8.78%"}
{"smiles": "C[N+]1=C2C=CC=CC=C2SC12C([N+](=O)[O-])=CC([N+](=O)[O-])=C[C-]2[N+](=O)[O-]", "note": "(centres undefined)", "FP activity, negative = inhibition": "inactive: -8.37%"}
{"smiles": "CCN(/C(=N/P(=O)(N1CCOCC1)N1CCOCC1)N1CCOCC1)c1ccc(OC)cc1", "FP activity, negative = inhibition": "inactive: -20.4%"}
{"smiles": "COc1ccccc1OP(=O)(Nc1ccc(C)cn1)Oc1ccccc1OC", "FP activity, negative = inhibition": "inactive: 4.88%"}
{"smiles": "Cc1ccc(OP(=O)(Nc2nccs2)Oc2ccc(C)cc2)cc1", "FP activity, negative = inhibition": "inactive: 3.44%"}
{"smiles": "Clc1ccc(Cl)c(NC2=NCC(CBr)S2)c1", "note": "(centres undefined)", "FP activity, negative = inhibition": "inactive: -5.33%"}
{"smiles": "CN1CCCC(OC(=O)C(c2ccccc2)c2ccccc2)C1", "note": "(centres undefined)", "FP activity, negative = inhibition": "inactive: 8.98%"}
{"smiles": "NC(=O)c1cc([N+](=O)[O-])cc([N+](=O)[O-])c1N", "FP activity, negative = inhibition": "inactive: -2.63%"}
